System: CTLL-2 cells
Assay: SPR measurement of reaction of CTLL2 cells (suspended cells) with IL-2
Assay type: cell-based
Details: IL-2 62.5 ng/ml, 60 μl, 37° C.; for SPR signal (difference between measuring portion and control portion): living CTLL-2 cells immobilized on sensor chip, PBS perfusion 15 μl/min
Protocol: In the method of the invention, cells are immobilized on a analyzer in the same manner as in the usual SPR measurement for vial cells, to which a stimulus as mentioned above is given to determine the signal as a change of permittivity in a conventional procedure. In this procedure, the invention is characterized in that, in addition to a signal observed during the stimulus on the cells (a primary signal), a secondary signal appearing subsequent to the primary signal is measured as an indication for evaluating the cellular activity responding to the external stimulus.
The method of the invention will be explained in more detail by the following examples, which are not intended to limit the scope of the invention. In the following examples, SPR-CELLIA (Japan Laser Electronic Co.) was used as an SPR analyzer. The sensor chip for amine coupling was prepared as follows.
In 10 μM solution of 4,4-dithiodibutyric acid in ethanol was immersed a sensor chip and stirred for 30 minutes. Thereafter, the chip was washed with dry ethanol and dried. Water-soluble carbodiimide (25 mg) was dissolved in 1 ml of MilliQ water, and 15mg of N-hydroxysuccinimide in 9 ml of 1,4-dioxane, respectively. Both solutions were mixed immediately before the dried sensor chip was immersed therein and the mixture stirred for 10 minutes. Then, there was added 10 ml of MilliQ water, and the mixture was stirred for 5 minutes. The chip was washed with MilliQ water and preserved in MilliQ water.
The suspension (30 μl)of CTLL-2 cells (2×10^5 cells/ml) in PBS were directly placed onto both of sensor chip-measuring portion and control portion, and the chip was blocked with 50 μl of 1% BSA. The sensor chip was equipped in a flow-cell unit of the SPR analyzer, of which the temperature was set at 37° C. and was perfused with PBS at a flow rate of 15 μl/min. IL-2 (62.5 ng/ml, 60 μl) was injected into the measuring portion, while PBS continuously perfused, and the change of the signal was measured. The portion into which no IL-2 was injected was used as a control.

| Molecule | periodicity of the characteristic SPR signal (CTLL-2 cells) | SPR signal (difference between measuring portion and control portion) |
| --- | --- | --- |
| IL-2: cytokine ligand injected onto CTLL-2 cells | about 10 minutes | a characteristic signal appeared |
| IL-3: agent which does not bind to CTLL-2 cells (protein, UniProt P08700 20-152, looked up) Interleukin-3: APMTQTTPLKTSWVNCSNMIDEIITHLKQPPLPLLDFNNLNGEDQDILMENNLRRPNLEAFNRAVKSLQNASAIESILKNLLPCLPLATAAPTRHPIHIKDGDWNEFRRKLTFYLKTLENAQAQQTTLSLAIF |  | no signal was observed |

— patent publication US7470550B2, “Method of evaluating cell activity” (Toyo Advanced Technologies Co., Ltd., priority 2001, dated 2008)
